Our source for the IC50 values is US20250100993A1, “2-SUBSTITUTED THIAZOLE HSD17B13 INHIBITORS AND USES THEREOF” (Inipharm, Inc., priority 2022, published 2025).

By UniProt entry, the sequences of proteins in these tests, tags left out. Residues count along the entry.
UniProt Q7Z5P4, 20-300 limits assumed: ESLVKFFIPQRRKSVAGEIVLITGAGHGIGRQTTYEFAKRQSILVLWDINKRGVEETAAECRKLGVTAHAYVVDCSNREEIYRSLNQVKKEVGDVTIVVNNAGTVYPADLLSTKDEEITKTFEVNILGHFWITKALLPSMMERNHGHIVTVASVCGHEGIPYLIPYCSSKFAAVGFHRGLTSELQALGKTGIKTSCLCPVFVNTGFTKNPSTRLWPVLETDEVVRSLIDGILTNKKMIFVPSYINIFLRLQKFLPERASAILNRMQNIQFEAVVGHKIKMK

For the test, the target named is HSD17B13 (Homo sapiens (Human), UniProt Q7Z5P4). Kind of test: LC/MS estrone detection assay for HSD17B13 activity (estradiol to estrone). The conditions noted are these: read-out: IC50 with Estradiol, estradiol substrate. The protocol: The liquid chromatography/mass spectrometry (LC/MS) estrone detection assay monitors the conversion of estradiol to estrone by HSD17B13. This assay was undertaken in a 96 wp format (Eppendorf deep well Plate 96/500) in an 80 μl reaction volume containing: 4 μM of Estradiol (E2; Cayman; Ser. No. 10/006,315), 6 mM NAD+(Sigma; #N0623) and 30 nM HSD17B13 enzyme (in-house; E. coli expressed His-tagged, purified, soluble protein) in a reaction containing 1M potassium phosphate buffer pH 7.4, with 0.5% vehicle (DMSO). Reactions were incubated for 2 hours at 26.5° C., and estradiol (E2) conversion to estrone (E1) was quantitated by LC-MS/MS based analyte detection for both E2 and E1 using LCMS grade reagents.
Reactions were terminated by the addition of two volumes of acetonitrile (MeCN; LCMS grade; CAS #75/05/8) containing deuterated (D4)-E1 used as internal standard (Clear Synth; #CS-T-54273; 500 ng/mL final concentration). […] Aqueous linearity for E2 and E1 were included for quantification.
Analysis of samples was undertaken on a XBridge BEH C18 column (Waters; #186003033) using 0.1% Diethyl Amine in MeCN (mobile phase A; DEA CAS #109-89-7) and 0.1% Diethyl Amine in milli-Q water (mobile phase B) in a 3 min gradient allowing 25% B. Analytes were detected in negative mode using MRM analysis, with E2 having a RT of 1.85 min and E1 having a RT of 2 min. […]

Take `O=C(Nc1scnc1C(=O)NCc1ccc(C(F)(F)F)nc1)c1cc(Cl)c(O)c(Cl)n1`: the IC50 lay within 500 to 1000 nM.
